Source: patent publication US10176292B2, “STING crystals and modulators” (MEMORIAL SLOAN-KETTERING CANCER CENTER, priority 2013, dated 2019)

Protein sequences, listed by entry. Tags and fused reporters are not part of them. Residues count along the entry.
UniProt Q86WV6, 140-379: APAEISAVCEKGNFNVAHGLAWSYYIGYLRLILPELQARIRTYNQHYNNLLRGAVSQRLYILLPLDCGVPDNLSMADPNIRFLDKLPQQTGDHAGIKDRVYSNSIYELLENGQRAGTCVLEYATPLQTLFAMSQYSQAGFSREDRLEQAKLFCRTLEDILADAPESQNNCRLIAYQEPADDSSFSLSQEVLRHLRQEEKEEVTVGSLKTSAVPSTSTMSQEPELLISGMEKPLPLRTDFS
UniProt Q86WV6, 140-379 H232R: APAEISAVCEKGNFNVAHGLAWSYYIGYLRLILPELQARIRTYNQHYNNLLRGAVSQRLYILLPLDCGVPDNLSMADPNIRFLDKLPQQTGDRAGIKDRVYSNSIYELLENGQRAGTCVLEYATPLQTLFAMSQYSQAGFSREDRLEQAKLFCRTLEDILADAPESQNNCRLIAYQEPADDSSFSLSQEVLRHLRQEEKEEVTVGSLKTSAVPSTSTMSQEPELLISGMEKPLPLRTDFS

Experiments:
[1] = biological target: T1, hSTING^H232 (aa 140-379) (Homo sapiens, UniProt Q86WV6); assay: ITC binding, hSTING^H232; settings: Protein: 0.2 mM; Ligands: 1 mM; 30 mM HEPES, 100 mM NaCl, pH 7.5; 25° C.
T1 construct: His6-SUMO (N, cleaved yes); made in house; host or cells: E. coli BL21 (DE3) RIL

[2] = biological target: hSTING^R232 (aa 140-379) (Homo sapiens, UniProt Q86WV6, H232R); assay: ITC binding, hSTING^R232 (wt hSTING); settings: Protein: 0.2 mM; Ligands: 0.9 mM; pH 7.5; 25° C.

TΔS [1]: -3.61 kcal/mol
ΔG [1]: -7.01 kcal/mol
ΔH [1]: -10.62 kcal/mol
TΔS [2]: +6.86 Kcal/mol
ΔG [2]: -7.99 kcal/mol
ΔH [2]: -1.13 kcal/mol
Structure (SMILES): Nc1nc2c(ncn2[C@@H]2O[C@@H]3COP(=O)(O)O[C@H]4[C@@H](O)[C@H](n5cnc6c(N)ncnc65)O[C@@H]4COP(=O)(O)O[C@H]3[C@H]2O)c(=O)[nH]1
